Source: PubChem (National Center for Advancing Translational Sciences (NCATS))
Rango release inh = prevents RanGTP from dissociating the Rango-importin beta complex; O95149+P62826; Biochemical FRET Rango-importin beta, RanGTP-induced dissociation; Potency, µM (highest dose often 46.1 µM), without a hit: at the highest dose activity change, negative = inhibition; 340,000 tested, 0.071% active; AID 540253; calls by dose curve; also: % of control where 0% means no effect; nearly all actives have a fitted effect of over 45% in size
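Recombinant Rango FRET biosensor (EYFP–snurportin 1 IBB–cerulean CFP10) at 0.1 uM premixed with 0.25 uM importin beta in PBS, 1 mM DTT, 0.02% Tween-20, 0.1% BSA. Compound added 5 min; RanGTP-RCC1 (0.6 uM Ran, 2 mM GTP, 0.2 uM RCC1) then triggers release, read at 45 min.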
A549 viability = A549 cytotoxicity, counter-screen for Nrf2 inhibitors; A549 ARE-Fluc cells, CellTiter-Fluor viability, 18-24 h; Potency, µM (titrated, usually from 46 µM), for inactives: top-dose activity change, negative = cytotoxicity, hits mostly inhibitors; 390,000 tested, 0.16% active; AID 504648; also: % is scaled to controls: 0 for no effect and ±100 for the full control effect
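A549 ARE-Fluc cells in 5% FBS OPTI-MEM, 5000 cells/well, rested 2 h then exposed to compounds in concentration-response for 18-24 h at 37 °C. Viability by CellTiter-Fluor fluorescence (Ex 405/Em 525) after 30 min; luciferase luminescence (BugLite, 15 min, RT) read afterwards.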
Rango-impB inh = Rango-importin beta binding inhibition; Potency, µM (highest dose often 92.2 µM), for the others: at the top dose inhibition of complex formation; AID 540263; 340,000 tested, 0.031% active; Q14974; Rango CFP/YFP FRET sensor + importin beta, 45 min; calls by dose curve;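 also: 0% = DMSO wells and 100% = buffer wells lacking importin beta; nearly all actives have a fitted effect of over 15% in size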
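Inhibition scored from the CFP 486 nm/YFP 530 nm FRET ratio 45 min after adding 0.125 microM importin beta to 50 nM Rango biosensor preincubated 5 min with compound (room temperature, PBS with DTT, Tween-20, BSA). No-importin wells as positive control.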
Nrf2 block = Nrf2 pathway inhibition; Potency, µM (series often up to 46 µM), without a hit: at the top dose activity change, negative = inhibition, most hits filed as inhibitors; 360,000 tested, 2.1% active; A549 ARE-Fluc reporter, luciferase luminescence, 18-24 h; also: % is scaled to controls: 0 for no effect and ±100 for the full control effect; nearly all actives have a fitted effect of over 60% in size
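Quantitative HTS in A549 cells stably bearing an antioxidant response element-firefly luciferase construct. Inhibition of Nrf2-driven transcription was scored by luminescence after 18-24 h of compound exposure at 37 °C.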
Nrf2 ARE act = Nrf2 pathway activation; AID 624171; Potency, µM (doses to about 46.1 µM), for the others: top-dose activation, actives largely listed as activators; AREc32 ARE-luciferase reporter (MCF7-derived line), luminescence, 24 h; 410,000 tested, 0.31% active; also: % of control where 0% means no effect; nearly all actives have a fitted effect of over 65% in size
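Quantitative high-throughput format: AREc32 reporter cells, 1000 per well, received compound by pin transfer and were incubated 24 hr at 37 deg C, 5% CO2, before Steady-Glo luminescence detection.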
Active calls of the source: *; ? = inconclusive; . = no result; [ ] = dose if it differs, or a comment. A selection: hits, their analogues and other compounds. The true share with any hit is near 2.3%. Unless noted, calls follow the shape of the dose curve; as a rule, active = well fitted curve in the direction sought with a large enough effect; inconclusive = small, poorly fitted or top-dose-only effect, or another doubt; inactive = no such curve, though single readings can be large; an effect the other way counts as inactive or inconclusive. Potency is read from the fitted curve at half-maximal effect.

1. CC(N=Cc1c(O)c2ccccc2oc1=O)C(=O)O (centres undefined)
2. O=C(O)C(CO)N=Cc1c(O)c2ccccc2oc1=O (centres undefined)
3. O=[S+]([O-])(c1c(F)cccc1F)N1CCN([S+](=O)([O-])c2cccc3nonc23)CC1
4. CSc1nc(-c2ccc(F)cc2)cc(=O)[nH]1
5. Cc1nn(-c2ccccc2)c(Cl)c1C(=O)NC1CCCCC1
6. Cc1nn(-c2ccccc2)c(C)c1C(=O)OC(C)C(=O)NC1CCCCC1 (centres undefined)
7. COCCNC(=O)c1cc2cc(Cl)cc(Cl)c2oc1=O
8. O=C(NCCO)c1cc2cc(Cl)cc(Cl)c2oc1=O
Assay by compound | 1 | 2 | 3 | 4 | 5 | 6 | 7 | 8
Rango release inh | -16.1% | -6.9% | . | -2.8% | 3.6% | -19.3% | -1.7% | 18.4µM*
A549 viability | -9.3% | ? | -1.5% | 0.0% | 29.0% | -20.6% | -0.6% | -1.2%
Rango-impB inh | 0.5% | -1.9% | . | 0.8% | 2.4% | 0.4% | 2.0% | ?
Nrf2 block | ? | 6.51µM* | 13.6% | 5.7% | -22.9% | 18.4µM* | 0.8% | ?
Nrf2 ARE act | -0.1%[9.22 µM] | 0.2% | . | 0.4% | 2.2% | 0.6% | 1.9% | 8.2%

Single records, as listed above. Order of screens: Rango release inh	A549 viability	Rango-impB inh	Nrf2 block	Nrf2 ARE act
O=C(NCCO)c1cc2cc(Cl)cc(Cl)c2oc1=O is entered as 18.4µM*	-1.2%	?	?	8.2%
Cc1nn(-c2ccccc2)c(C)c1C(=O)OC(C)C(=O)NC1CCCCC1 (centres undefined) is entered as -19.3%	-20.6%	0.4%	18.4µM*	0.6%
COCCNC(=O)c1cc2cc(Cl)cc(Cl)c2oc1=O is entered as -1.7%	-0.6%	2.0%	0.8%	1.9%
Cc1nn(-c2ccccc2)c(Cl)c1C(=O)NC1CCCCC1 is entered as 3.6%	29.0%	2.4%	-22.9%	2.2%

Carrying on.
9. Cc1c(Br)c([N+](=O)[O-])nn1CC(=O)Nc1ccc(Cc2ccncc2)cc1
10. COCCCNC(=O)c1cc(-c2cccnc2)nc2ccc(S(=O)(=O)N3CCC(C)CC3)cc12
11. Cn1cc([C@@H]2C[C@H]3CN(Cc4cccc(Cl)c4)C(=O)[C@]34CCCN24)c(-c2ccccc2)n1
12. O=C1N(Cc2cccc(Cl)c2)C[C@@H]2C[C@@H](c3cccn3-c3cccnc3)N3CCC[C@@]123
13. CCn1cc(C(=O)NCc2ccc(Cl)cc2)c(=O)c2cc(S(=O)(=O)N(C)C3CCCCC3)ccc21
14. O=C(N/N=C/c1ccccc1)c1ccc(CN2C(=O)c3cccc4cccc2c34)cc1
15. O=C(N/N=C/c1ccc(O)cc1O)c1ccc(CN2C(=O)c3cccc4cccc2c34)cc1
16. COc1ccc2cc(-c3[nH]ncc3CN3CCCC3c3nonc3C)ccc2c1 (centres undefined)
Assay by compound | 9 | 10 | 11 | 12 | 13 | 14 | 15 | 16
Rango release inh | 22.8% | . | 2.2% | 7.1% | . | ? | ? | 1.1%
A549 viability | ? | 7.0% | ? | -13.4% | -4.9% | 14.2% | ? | 2.4%
Rango-impB inh | -0.6% | . | -0.2% | -4.8% | . | ? | ? | 0.0%
Nrf2 block | 18.4µM* | . | 20.6µM* | 20.6µM* | ? | -8.0% | 9.2µM* | 5.9%
Nrf2 ARE act | -0.7% | 0.2% | -0.7% | 0.5% | 0.5% | 0.9% | 0.2% | 4.7%

17. COc1ccc(OCC(=O)Nc2ccccc2C(=O)OCc2cc(=O)n3nc(C)sc3n2)cc1
18. CCc1ccc(C(=O)COC(=O)c2cc([N+](=O)[O-])ccc2NCCO)cc1
19. Cc1cccc(C)c1NC(=O)C(Cl)=C(Cl)Cl
20. Cc1nc2nc(-c3ccco3)[nH]n2c(=O)c1C
21. Cc1nc2nc(-c3ccco3)[nH]n2c(=O)c1Cc1ccccc1
22. CC(=O)Nc1ccc(N=Nc2ccccc2)cc1[N+](=O)[O-]
23. CC(=O)Nc1cc2oc3ccccc3c2cc1[N+](=O)[O-]
24. O=S(=O)(O)c1cc(Cl)cc(N=Nc2ccc(O)cc2O)c1O
Assay by compound | 17 | 18 | 19 | 20 | 21 | 22 | 23 | 24
Rango release inh | . | 3.4% | -1.4% | 13.5% | 5.4% | 0.5% | ? | -1.0%
A549 viability | 1.1% | 14.6µM* | 0.8% | 13.5% | -7.6% | 0.1% | 2.5% | ?
Rango-impB inh | . | 1.7% | -1.1% | ? | 1.2% | -1.5% | 3.5% | ?
Nrf2 block | . | 7.31µM* | 25.6% | . | . | ? | ? | -1.3%
Nrf2 ARE act | 0.0% | 3.1% | 11.2µM* | 11.2µM* | ? | 7.94µM* | ? | 10.8%

25. O=S(=O)(O)c1cc(O)c2c(O)c(N=Nc3cc(Cl)ccc3O)c(S(=O)(=O)O)cc2c1
26. Cc1cc2c(s1)c1cnn(Cc3c(F)cc(F)cc3F)c(=O)c1n2C
27. O=c1cnnc(N/N=C/c2c[nH]c3ccccc23)[nH]1
28. COc1cccc(NC(=O)COc2ncnc3sc(C)c(C)c23)c1
29. CCN(CC(=O)Nc1cccc(OC)c1)c1ncnc2sc(C)c(C)c12
30. Cc1ccc(C2=NCCn3c2c2ccc(C(F)(F)F)cc2[n+]3[O-])cc1
31. COc1ccc(N=NC2=C(O)CC(C)(C)CC2=O)c(OC)c1
32. COC(=O)c1ccc(CNC(=O)Cn2cnc3c(SC)nc(N)nc32)cc1
Assay by compound | 25 | 26 | 27 | 28 | 29 | 30 | 31 | 32
Rango release inh | ? | . | 2.3% | -0.7% | 1.2% | 0.1% | 15.3% | 1.8%
A549 viability | 14.6µM* | -2.8% | -4.5% | -2.1% | -6.0% | -11.1% | 0.1% | 1.8%
Rango-impB inh | ? | . | 0.2% | 4.2% | -4.1% | 0.7% | 51.7µM* | 2.5%
Nrf2 block | 20.6µM* | 6.3% | ? | -0.5% | 20.6µM* | 4.7% | -3.1% | 23.1µM*
Nrf2 ARE act | -1.2% | . | 12.6µM* | 2.7% | 2.9% | 6.6% | 3.5% | 0.0%

33. CC1CCN(C(=O)c2[nH]cnc2C(=O)N[C@@H](C)c2ccccc2)CC1
34. COc1cc(OC)cc(-c2cc3nc(C)c(CCC(=O)NCCc4cccc(C)c4)c(C)n3n2)c1
35. Cc1cccc(CCNC(=O)CCc2c(C)nc3c(c(C)nn3-c3ccccc3)c2C)c1
36. COc1cc(OC)cc(-c2cc3nc(C)c(CCC(=O)NCc4ccc(Cl)cc4)c(C)n3n2)c1
37. COc1ccccc1Cn1c(CNS(=O)(=O)c2cccc([N+](=O)[O-])c2)nc2cccnc21
38. COc1cc2c(cc1OC)-c1cc(OCCN3CCOCC3)nc(=O)n1CC2
39. CCCN(CCC)c1nc(-c2ccccn2)nc2ccccc12
40. c1ccc(CCNc2nc(-c3ccccn3)nc3ccccc23)cc1
Assay by compound | 33 | 34 | 35 | 36 | 37 | 38 | 39 | 40
Rango release inh | 2.7% | . | . | . | . | 8.2µM* | 10.8% | 20.4%
A549 viability | 5.0% | -5.9% | -17.8% | 6.1% | -0.7% | 7.0% | -17.8% | ?
Rango-impB inh | -4.7% | . | . | . | . | ? | -2.0% | 4.3%
Nrf2 block | -7.2% | 10.3µM* | 23.1µM* | 10.3µM* | . | 4.4% | 18.4µM* | 10.3µM*
Nrf2 ARE act | -0.2% | -2.7% | 0.0% | -3.6% | 5.8% | ? | 8.5% | 0.0%

41. O=C(c1ccccc1)c1ccc(O)cc1O
42. N#Cc1cccc(NC(=O)C2CCN(c3nc(-c4ccc(Cl)cc4)no3)CC2)c1
43. Nc1ccccc1-c1n[nH]c(=S)s1
44. Cc1ccccc1Nc1n[nH]c(=S)s1
45. COc1ccc(-c2noc(N3CCC(C(=O)N(C)c4cc(Cl)ccc4OC)CC3)n2)cc1
46. Cc1cc2c(s1)c1cnn(Cc3ccc(C)c(F)c3)c(=O)c1n2C
47. Cc1ccc(-n2nnnc2SCn2nnc3ccccc3c2=O)c(C)c1
48. O=C(Nc1ccc(Oc2cccc(C(F)(F)F)c2)nc1)c1cccs1
49. O=C(Nc1ccc(Oc2cccc(C(F)(F)F)c2)nc1)c1ccccc1
50. O=C(NCCN1CCCC1)C(c1ccccc1)c1ccccc1
51. Cc1ccc(NS(=O)(=O)c2ccc3c(c2)C(Cl)(Cl)C(=O)N3)cc1C
Assay by compound | 41 | 42 | 43 | 44 | 45 | 46 | 47 | 48 | 49 | 50 | 51
Rango release inh | 10.4% | . | 14.6µM* | . | . | . | 8.8% | 1.0% | -7.4% | 11.3% | .
A549 viability | 0.4% | ? | 0.9% | . | 4.9% | -0.2% | ? | 1.3% | -3.4% | ? | 0.7%
Rango-impB inh | 58µM* | . | ? | . | . | . | -3.3% | 0.9% | 0.0% | 0.7% | .
Nrf2 block | -21.0% | . | 13.3% | . | 9.6% | 2.8% | 9.2µM* | 16.4µM* | ? | 4.7% | 8.5%
Nrf2 ARE act | -0.6% | -0.1% | 0.3% | -0.7% | -1.8% | . | 1.5% | 0.3% | 0.0% | -0.1% | .
